Assay results as given in PubChem BioAssay AID588358 (NMMLSC, 2011).
Only a part is listed here, and it is no random draw. The source made the active and inactive calls.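 The calls were made as follows: active = binding more than 3 SD below its plate's average and above zero; inconclusive = below that plate limit but binding exactly zero; inactive = the rest.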

Sequences of proteins named here, by UniProt entry; tags and fusion partners are left off. A change or cut given only in a name is not applied to a line headed by its entry.
UniProt P32926: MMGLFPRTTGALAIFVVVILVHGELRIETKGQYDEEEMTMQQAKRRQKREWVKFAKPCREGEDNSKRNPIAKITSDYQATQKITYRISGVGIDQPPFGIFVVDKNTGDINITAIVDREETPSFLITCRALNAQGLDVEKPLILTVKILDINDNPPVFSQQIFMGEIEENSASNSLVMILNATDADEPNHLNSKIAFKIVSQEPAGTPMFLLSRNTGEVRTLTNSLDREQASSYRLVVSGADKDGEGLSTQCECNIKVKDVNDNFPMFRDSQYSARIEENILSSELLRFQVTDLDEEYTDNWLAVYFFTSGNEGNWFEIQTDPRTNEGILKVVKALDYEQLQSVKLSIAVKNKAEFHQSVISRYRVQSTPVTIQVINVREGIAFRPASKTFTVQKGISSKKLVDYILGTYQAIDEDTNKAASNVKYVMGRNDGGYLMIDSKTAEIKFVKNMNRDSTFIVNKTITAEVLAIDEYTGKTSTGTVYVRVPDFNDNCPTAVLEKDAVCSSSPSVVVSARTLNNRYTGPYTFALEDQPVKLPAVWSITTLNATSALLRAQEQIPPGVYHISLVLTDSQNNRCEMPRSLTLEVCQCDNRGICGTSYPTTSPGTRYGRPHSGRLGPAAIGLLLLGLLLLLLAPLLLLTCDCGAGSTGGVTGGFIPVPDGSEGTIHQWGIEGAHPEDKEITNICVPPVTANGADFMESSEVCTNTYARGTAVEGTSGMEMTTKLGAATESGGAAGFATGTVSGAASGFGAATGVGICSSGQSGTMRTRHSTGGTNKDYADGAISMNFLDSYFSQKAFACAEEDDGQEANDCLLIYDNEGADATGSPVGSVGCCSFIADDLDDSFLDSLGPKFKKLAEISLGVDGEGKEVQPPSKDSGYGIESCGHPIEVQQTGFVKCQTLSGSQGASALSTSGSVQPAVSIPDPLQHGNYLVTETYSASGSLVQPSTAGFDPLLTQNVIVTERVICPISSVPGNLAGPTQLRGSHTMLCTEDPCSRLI

Molecular target: Desmoglein-3 (Homo sapiens) (UniProt P32926)
Test: blockers of anti-DSG3 scFv binding – biochemical, bead-based, flow cytometry, scFv-GFP, primary screen (AID 588358);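 also: hits lower antibody fragment binding to DSG3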
Conditions: DSG3-coupled beads, at 10 µM, stronger effect = lower value

| Structure (SMILES) | binding (percent of control) |
| --- | --- |
| CCCOP(=S)(Nc1nc(N)cc(=O)[nH]1)OCCC | inactive: 93.8% |
| Cc1ccc(NCCc2c([N+](=O)[O-])cc([N+](=O)[O-])cc2[N+](=O)[O-])cc1 | inactive: 97.6% |
| Nc1cccc2c([As](=O)(O)O)cccc12 | inactive: 96.4% |
| COc1cc(C2NCCC3(OCCO3)C2(C)C)cc(OC)c1OC (centres undefined) | inactive: 103% |
| CCOP(=O)(Nc1cccc2ccccc12)OCC | inactive: 101% |
| O=[As](O)(O)c1cccnc1 | inactive: 99.5% |
| COc1cc(C(=O)NCC2(N3CCOCC3)CCCCC2)cc(Cl)c1OC(C)C | inactive: 100% |
| CS(=O)(=O)c1ccc(Cl)c(NC(=O)COC(=O)C(O)(c2ccccc2)c2ccccc2)c1 | inactive: 104% |
| O=C(OC1CN2CCC1CC2)c1ccc(Cl)cc1 (centres undefined) | inactive: 112% |
| Cc1cccc(OCC(=O)OC2CN3CCC2CC3)c1 (centres undefined) | inactive: 103% |
| O=[As](O)(c1cccc(O)c1)c1cccc(O)c1 | inactive: 103% |
| NC(=O)Nc1ccc([As](=O)(O)O)cc1 | inactive: 104% |
| O=[N+]([O-])c1ccc2c(c1)nnn2O | inactive: 98.3% |
| CN(C)C(=O)c1cc([N+](=O)[O-])cc2c1-c1c(cc([N+](=O)[O-])cc1[N+](=O)[O-])C2=O | inactive: 101% |
| CN(C(=O)Cc1ccc(Cl)c(Cl)c1)[C@H]1CC[C@@]2(CCCO2)C[C@@H]1N1CCCC1 | inactive: 103% |
| N#CCCN(C(=O)COC(=O)C(O)(c1ccccc1)c1ccccc1)c1ccc(F)cc1 | inactive: 97.8% |
| CCOP1(=S)c2c(C)nn(CCC#N)c2N=C(c2ccc(F)cc2)N1C (centres undefined) | inactive: 91.5% |
| CS(=O)(=O)c1cc([N+](=O)[O-])c2no[n+]([O-])c2c1 | inactive: 90.6% |
| CCOP1(=S)c2c(C)nn(CCC#N)c2N=C(c2ccccc2F)N1C (centres undefined) | inactive: 94.8% |
| O=P(Nc1nccs1)(Oc1ccccc1)Oc1ccccc1 | inactive: 111% |
| O=P(Nc1nccs1)(c1ccccc1)c1nc2ccccc2s1 (centres undefined) | inactive: 97% |
| Nc1ccccc1[As](=O)(O)c1ccccc1 | inactive: 96.1% |
| O=C(O)COc1ccc([As](=O)(O)O)cc1[N+](=O)[O-] | inactive: 112% |
| O=P1(Nc2ncccn2)COc2ccccc2OC1 | inactive: 105% |
| Cc1ccc(OCC(=O)OC2CN3CCC2CC3)cc1 (centres undefined) | inactive: 110% |
| O=[As](O)(c1cccs1)c1cccs1 | inactive: 87.6% |

| Structure (SMILES) | binding (percent of control) |
| --- | --- |
| O=P1(Nc2ccc(Br)cn2)COc2ccccc2OC1 | inactive: 100% |
| NS(=O)(=O)c1cccc(NC(=O)COC(=O)C(O)(c2ccccc2)c2ccccc2)c1 | inactive: 106% |
| Nc1cccc([As](=O)(O)c2ccccc2)c1 | inactive: 101% |
| Cc1nn(-c2ccccc2)c2c1P(=O)(N1CCOCC1)N(C)C(c1ccccc1)=N2 (centres undefined) | inactive: 102% |
| CC1CCC(C(C)C)C(OP(=O)(Nc2ccccn2)c2ccccc2)C1 (centres undefined) | inactive: 102% |
| Cc1ccc(C(=O)OC2CN3CCC2CC3)cc1 (centres undefined) | inactive: 112% |
| CCCC1OP(=O)(Nc2ccccc2)OCC1CC (centres undefined) | inactive: 94.7% |
| CN(C)C1(CNC(=O)c2ccc(S(C)(=O)=O)cc2)CCCCC1 | inactive: 106% |
| COc1ccccc1CNC(=O)COC(=O)C(O)(c1ccccc1)c1ccccc1 | inactive: 105% |
| CC1(CBr)Cn2c(nc3ccccc3c2=O)S1 (centres undefined) | inactive: 98.9% |
| CC(C)/C=N\N=C(\N)N[N+](=O)[O-] | inactive: 102% |
| CCOP(=O)(Nc1ccc(C)cn1)OCC | inactive: 97.3% |
| O=P1(Nc2ccccn2)COc2ccccc2OC1 | inactive: 97.5% |
| CCC1=CC2Cc3nc4ccc(Cl)cc4c(N)c3C(C1)C2 (centres undefined) | inactive: 153% |
| CCOP(=O)(NC(=NC(C)c1ccccc1)NC(C)c1ccccc1)OCC (centres undefined) | inactive: 103% |
| O=P1(N(CCCl)CCCl)NCCC(C(F)(F)F)O1 (centres undefined) | inactive: 105% |
| Clc1n[nH]nc1-c1nn[nH][15n]1 | inactive: 96% |
| CC(C)(C)C(=O)NC(Sc1ncccn1)C(Cl)(Cl)Cl (centres undefined) | inactive: 102% |
| CCOC(=O)c1ccc(NC(=O)C(C)(CCl)SC)cc1 (centres undefined) | inactive: 102% |
| O=C(OC1CN2CCC1CC2)c1cccc([N+](=O)[O-])c1 (centres undefined) | inactive: 89.8% |
| CSc1ccc(Nc2c([N+](=O)[O-])cc([N+](=O)[O-])cc2[N+](=O)[O-])cc1 | inactive: 103% |
| COP1(=S)c2c(C)nn(CCC#N)c2N=C(c2ccc(F)cc2)N1C (centres undefined) | inactive: 100% |
| O=C(COc1ccccc1)OC1CN2CCC1CC2 (centres undefined) | inactive: 105% |
| O=C(Nc1ccncc1[N+](=O)[O-])c1ccc([N+](=O)[O-])cc1[N+](=O)[O-] | inactive: 103% |
| O=C(O)C(=O)c1ccc(N(CCCl)CCCl)cc1 | inactive: 106% |
| O=[N+]([O-])c1ccc(Nc2ccc(Oc3ccc([N+](=O)[O-])cc3[N+](=O)[O-])cc2)c([N+](=O)[O-])c1 | inactive: 91.9% |

| Structure (SMILES) | binding (percent of control) |
| --- | --- |
| O=P(Nc1ccccn1)(c1cccc2ccccc12)c1cccc2ccccc12 | inactive: 101% |
| Cc1cc(SC(NC=O)C(Cl)(Cl)Cl)ncn1 (centres undefined) | inactive: 86.7% |
| CC1CCNP(=O)(N(CCCl)CCCl)O1 (centres undefined) | inactive: 94.9% |
| CCOC(=O)Nc1ccc([As](=O)(O)O)c(O)c1 | inactive: 88.6% |
| O=C(O)C(O)c1ccc(N(CCCl)CCCl)cc1 (centres undefined) | inactive: 110% |
| CCCCOc1ccc(C(=O)NCC2(N3CCCCC3)CCCCC2)cc1OC | inactive: 107% |
| Cc1cc(SC(NC(=O)c2ccccc2)C(Cl)(Cl)Cl)nc(C(C)C)n1 (centres undefined) | inactive: 85.2% |
| COP(=O)(OC)N1CC1c1ccccc1 (centres undefined) | inactive: 107% |
| COC(=O)C1(C)COP(=O)(N2CCCCCC2)OC1 (centres undefined) | inactive: 90.6% |
| CC(C)c1ccc(OP(=O)(Nc2ccccn2)Oc2ccccc2F)cc1 (centres undefined) | inactive: 110% |
| ClCCSc1nnc(-c2cccnc2)o1 | inactive: 93.2% |
| CC(C)NC(=O)NP(=O)(Oc1ccccc1)Oc1ccccc1 | inactive: 98.9% |
| CCN(CC)C(=S)SC(NC=O)C(Cl)(Cl)Cl (centres undefined) | inactive: 103% |
| O=C(OC1CN2CCC1CC2)c1cccc2[nH]cnc12 (centres undefined) | inactive: 90.3% |
| O=[N+]([O-])c1cc([N+](=O)[O-])c(-c2ccn[nH]2)s1 | inactive: 107% |
| O=[As](O)(c1ccc(O)cc1)c1ccccc1O | inactive: 96.6% |
| C[As](=O)(O)c1cccc(C(=O)O)c1 | inactive: 94.8% |
| O=[N+]([O-])c1ccc(-c2cc([N+](=O)[O-])c(O)c([N+](=O)[O-])c2)cc1 | inactive: 95.8% |
| COc1cc(C(=O)NCC2(N3CCOCC3)CCCCC2)ccc1OCC(C)C | inactive: 96.8% |
| Cc1ccc2nc3c(c(C)c2c1)CC(C(Cl)Cl)S3 (centres undefined) | inactive: 87.3% |
| Cc1ccc(OP(=O)(Nc2ccc([N+](=O)[O-])cn2)Oc2ccc(C)cc2)cc1 | inactive: 94.5% |
| COc1ccc(N/C(=N/P(=O)(N2CCOCC2)N2CCOCC2)N2CCOCC2)cc1 | inactive: 102% |
| O=[N+]([O-])c1cc(Oc2ccc([N+](=O)[O-])cc2C(F)(F)F)cc([N+](=O)[O-])c1 | inactive: 88% |
| O=C(OC1CN2CCC1CC2)C12CC3CC(CC(C3)C1)C2 (centres undefined) | inactive: 96.9% |
| Cc1cc(=O)[nH]c(N[N+](=O)[O-])n1 | inactive: 96.3% |
| Cc1c2c(nc3ccccc13)SC(C(Cl)Cl)C2 (centres undefined) | inactive: 108% |

| Structure (SMILES) | binding (percent of control) |
| --- | --- |
| COc1ccc2nc(NP(=O)(c3ccccc3)c3ccccc3)sc2c1 | inactive: 99.1% |
| COc1cc(I)ccc1[As](=O)(O)O | inactive: 94.8% |
| O=P1(N(CCCl)CCCl)Nc2ccccc2N1 | inactive: 117% |
| CC(C)CC(=O)NC(Sc1ccc(Cl)cc1)C(Cl)(Cl)Cl (centres undefined) | inactive: 106% |
| Oc1ccccc1CNc1ccccn1 | inactive: 96.5% |
| O=C(NC(Sc1ccncn1)C(Cl)(Cl)Cl)c1ccccc1 (centres undefined) | inactive: 115% |
| NC(=O)c1cc([N+](=O)[O-])cc([N+](=O)[O-])c1N | inactive: 98.8% |
| CN(C(=O)Cc1ccc(Cl)c(Cl)c1)[C@H]1CCCC[C@H]1N1CCCC1 | inactive: 101% |
| Cc1ccc(N/C(=N/P(=O)(N2CCOCC2)N2CCOCC2)N2CCOCC2)cc1 | inactive: 111% |
| COc1ccccc1OP(=O)(Nc1ccc(C)cn1)Oc1ccccc1OC | inactive: 103% |
| Cc1ccc(OP(=O)(Nc2nccs2)Oc2ccc(C)cc2)cc1 | inactive: 103% |
| CN1CCCC(OC(=O)C(c2ccccc2)c2ccccc2)C1 (centres undefined) | inactive: 114% |
| Clc1ccc(Cl)c(NC2=NCC(CBr)S2)c1 (centres undefined) | inactive: 99.1% |
| CCN(N=Nc1nonc1N)c1nonc1N | inactive: 99% |
| Nc1cccc2ccc([As](=O)(O)O)cc12 | inactive: 103% |
| CC(=O)Nc1ccc([As](=O)(O)O)cc1 | inactive: 93% |
| O=C(O)c1ccccc1[As](=O)(O)O | inactive: 99.9% |
| CCCC1OP(N)(=O)OCC1CC (centres undefined) | inactive: 95.5% |
| CN(C)P(=O)(N(C)C)n1c(Nc2ccccc2)nnc1-c1ccccc1 | inactive: 98.5% |
| Cc1cc(SC(NC(=O)c2ccc(F)cc2)C(Cl)(Cl)Cl)ncn1 (centres undefined) | inactive: 107% |
| CCOP(=O)(Nc1ccccc1)OCC | inactive: 108% |
| CN(C(=O)Cc1ccc(Cl)c(Cl)c1)[C@H]1CCCC[C@@H]1N1CCCC1 | inactive: 98.7% |
| CC(C)(C)C(=O)NC(Sc1ccncn1)C(Cl)(Cl)Cl (centres undefined) | inactive: 101% |
| O=[N+]([O-])c1ncn(CCn2ncnc2[N+](=O)[O-])n1 | inactive: 99.6% |
| COC(=O)C1(C)COP(=O)(Nc2ccccc2)OC1 (centres undefined) | inactive: 91.3% |
| O=C(O)CNc1ccc([As](=O)(O)O)cc1 | inactive: 89.2% |
